From publication PMC10649572, “Arrhythmia-Associated Calmodulin E105A Mutation Alters the Binding Affinity of CaM to a Ryanodine Receptor 2 CaM-Binding Pocket” (International Journal of Molecular Sciences, 2023)
Values belong to the compound of their own block, whether it stands above or below them.

How the values were obtained:
CaM = details: mouse RyR2 regions, ITC; ref [54]; cited from earlier work
Source text: Although the sequence that lies within the residues 3583-3603aa in RyR2 has been identified from multiple studies as the main and most well-established CaMBD region of RyR2 [16, 40, 41, 42], up-to-date many other linear fragments of RyR2 have also been reported as potential CaM-binding sequences but their exact role is not yet clear.

CaM^E105A = target: T1, CaM^E105A (Homo sapiens, UniProt P0DP23, E105A); assay: Isothermal titration calorimetry (ITC), peptide titrated into CaM^E105A; assay type: binding; details: for Gibbs Free Energy Change (ΔrG) / Entropic Term (−T∙ΔrS) / Stoichiometry [N] / Binding Enthalpy (ΔrH): pH 7.4, 25 °C; for Gibbs Free Energy Change (ΔrG): calculated from Kb; for Entropic Term (−T∙ΔrS): calculated from ΔrG = ΔrH − T ΔrS; for Stoichiometry [N]: moles of peptide bound per mol of protein; for Stoichiometry [N] / Binding Enthalpy (ΔrH): one-set-of-sites fit
T1 construct: made in house; host or cells: Escherichia coli BL21-CodonPlus(DE3)

Compound: 1941-1965aa: mouse RyR2 region 1941-1965aa, cited ITC study (FRYNEVMQALNMSAALTARKTREFR; UniProt E9Q401 1941-1965, looked up, fragment) [Peptide 1941-1965aa]
- affinity for CaM compared to the other two RyR2 regions (CaM): much lower affinity
- binding to CaM (CaM): bound to CaM

Compound: 3580-3606aa: mouse RyR2 region 3580-3606aa, cited ITC study [Peptide 3580-3606aa]
- binding to CaM (CaM): bound to CaM

Compound: 4246-4276aa: mouse RyR2 region 4246-4276aa, cited ITC study (ALRYNVLTLVRMLSLKSLKKQMKRMKKMTVK; UniProt E9Q401 4246-4276, looked up, fragment) [Peptide 4246-4276aa]
- binding to CaM (CaM): bound to CaM

- Gibbs Free Energy Change (ΔrG) (CaM^E105A; apo-buffer (10 mM EDTA)): -6.29 ± 0.072 kcal/mol
- Entropic Term (−T∙ΔrS) (CaM^E105A; apo-buffer (10 mM EDTA)): -7.55 ± 0.14 kcal/mol
- Stoichiometry [N] (CaM^E105A; apo-buffer (10 mM EDTA)): 0.89 ± 0.01
- Binding Enthalpy (ΔrH) (CaM^E105A; apo-buffer (10 mM EDTA)): 1.24 ± 0.12 kcal/mol
- Kd of CaM^E105A, times higher (binding times weaker) compared to CaM^WT (CaM^E105A; apo-buffer, 25 °C, ratio of Kd CaM^E105A / CaM^WT): ~ 2 times
- effect of E105A mutation on the binding of CaM to the peptide (CaM^E105A; compared to CaM^WT, holo-buffer, 25 °C): significantly lower affinity
- Gibbs Free Energy Change (ΔrG) (CaM^E105A; holo-buffer (10 mM CaCl2)): -7.62 ± 0.072 kcal/mol
- Entropic Term (−T∙ΔrS) (CaM^E105A; holo-buffer (10 mM CaCl2)): -9.49 ± 0.12 kcal/mol
- Stoichiometry [N] (CaM^E105A; holo-buffer (10 mM CaCl2)): 0.94 ± 0.01
- Binding Enthalpy (ΔrH) (CaM^E105A; holo-buffer (10 mM CaCl2)): 1.86 ± 0.096 kcal/mol
- ITC binding signature (CaM^E105A; holo-buffer, 25 °C): endothermic
- complex formed (stoichiometry) (CaM^E105A; holo-buffer, 25 °C): 1:1 complex
- Kd of CaM^E105A, times higher compared to CaM^WT (CaM^E105A; holo-buffer, 25 °C, ratio of Kd CaM^E105A / CaM^WT): ~ 4 times
Compound: CSCC[C@H](NC(=O)[C@H](CCC(N)=O)NC(=O)[C@H](CCCCN)NC(=O)[C@H](CCCCN)NC(=O)[C@H](CC(C)C)NC(=O)[C@H](CO)NC(=O)[C@H](CCCCN)NC(=O)[C@H](CC(C)C)NC(=O)[C@H](CO)NC(=O)[C@H](CC(C)C)NC(=O)[C@H](CCSC)NC(=O)[C@H](CCCNC(=N)N)NC(=O)[C@H](CCSC)NC(=O)[C@@H](N)CC(C)C)C(=O)N[C@@H](CCCCN)C(=O)N[C@@H](CCCCN)C(=O)N[C@H](C(=O)O)C(C)C [Peptide F]
